Results reported in patent US7718681B2, “5-(1,3-Diaryl-1H-pyrazol-4-ylmethylene)-thiazolidine,2,4-dione derivatives useful as anticancer agent” (Korea Research Institute of Chemical Technology, priority 2005, dated 2010).

By UniProt entry, the sequences of proteins in these tests, tags left out. Residues count along the entry.
UniProt P30305, 392-580 limits assumed: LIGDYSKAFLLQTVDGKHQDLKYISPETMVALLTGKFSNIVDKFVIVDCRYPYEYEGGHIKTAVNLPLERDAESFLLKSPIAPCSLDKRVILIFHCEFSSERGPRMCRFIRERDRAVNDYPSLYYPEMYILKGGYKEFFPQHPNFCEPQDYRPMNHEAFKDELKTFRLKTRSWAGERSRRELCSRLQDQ

target: CDC25B (Homo sapiens, UniProt P30305); assay: CDC25B enzyme assay; conditions: catalytic domain of CDC25B (aa 378-566) GST fusion, 20 μm FDP, 1 hour at room temperature, fluorescence
Protocol: Catalytic domain of CDC25B (aa 378-566) was expressed and produced in E. coli into a GST fusion protein, which was used as zymogen. Enzyme assay was carried out on a 96-well plate, with the final reaction volume per well adjusted to 200 μL. 170 μL of a buffer solution (30 mM Tris buffer, pH 8.5, 75 mM NaCl, 0.67 mM EDTA, 1 mM DTT), 20 μL (0.2 μg) of CDC25B enzyme and 10 μL of the test compound dissolved in DMSO were added, so that the final concentration became 1 μg/mL CDC25B and 20 μm FDP. Measurement was made after culturing at room temperature for 1 hour. FDP and DTT were added to the buffer solution just before assay, so that a fresh status could be maintained. After 1 hour of culturing, fluorescence resultant from the enzymatic reaction was measured at 485 nm (excitation) and 538 nm (emission).
The screened compound was treated to a final concentration of 1, 2, 5 and 10 μm to obtain the % inhibition value. If the inhibitory effect was low (less than 50% at […]), the concentration of the compound was increased to 20 μm and the % inhibition value and the IC50 value were obtained.

IC50 [µM] | Compound
1.03 | O=C1NC(=O)/C(=C/c2cn(-c3ccccc3)nc2-c2cccc([N+](=O)[O-])c2)S1
4.2 | CCCOc1c(C(C)(C)C)cc(-c2nn(-c3ccccc3)cc2/C=C2\SC(=O)N(CC)C2=O)cc1C(C)(C)C
0.58 | CCCOc1c(Br)cc(-c2nn(-c3ccccc3)cc2/C=C2\SC(=O)NC2=O)cc1Br [Compound 163]

Compound | IC50 [µM]
C=CCN1C(=O)S/C(=C\c2cn(-c3ccccc3)nc2-c2ccc(OCC)c(I)c2)C1=O | 4.16
